Experimental data taken from US10463630B2, “Interaction of methylated LSD1 and CHD1, a compound inhibiting this interaction for use in therapy, and a screening method for such a compound” (Albert-Ludwigs-Universität Freiburg, priority 2015, dated 2019).

How the values were obtained:
[1] = molecular target: T1, CHD1 D425A (Homo sapiens, UniProt O14646, D425A); assay: ITC with CHD1 D425A mutant; format: binding; conditions: data not shown
T1 construct: titration of LSD1aa104-127 K114me0, 1, 2, and 3 peptides to CHD1aa270-443; made in house; E. coli likely, inferred from the pET15b vector of the wild-type fragment
T1 sequence (O14646 270-443 D425A): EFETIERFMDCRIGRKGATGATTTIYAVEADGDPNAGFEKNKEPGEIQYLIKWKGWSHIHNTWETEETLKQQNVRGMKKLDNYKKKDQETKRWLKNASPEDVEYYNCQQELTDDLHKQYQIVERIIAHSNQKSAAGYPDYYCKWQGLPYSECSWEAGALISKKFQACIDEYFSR
Description: Amino acid residues 110-116 of the LSD1 peptide were modelled according to the electron density (FIG. 2c). […] This interaction involves residues Y295, W322, W325 from chromodomain 1 and D408 and D425 from chromodomain 2 (FIG. 2b and FIG. 5a). The methylammonium group of LSD1 K114 and side chains of W322 and W325 of CHD1 form cation-π interactions. […] It was therefore hypothesized that the R113-D425 interaction may be a discriminating feature of CHD1 binding either LSD1 K114me2 or H3K4me3 peptide and that the corresponding surface could be exploited for the design of inhibitors specifically interfering with LSD1 K114me2 but not H3K4me3 interaction (see FIG. 5c). […] Next, it was tested whether in vivo the interaction of CHD1 with LSD1 depends on LSD1 methylation. In the presence of G9A, endogenous CHD1 only coimmunoprecipitated with methylated Flag-LSD1, but not with Flag-LSD1 K114A (FIG. 2d). To investigate whether CHD1 and LSD1 K114me2 are present in the same protein complex, LNCaP cell extracts were subjected to sucrose gradient centrifugation. […] Furthermore, endogenously expressed CHD1 and LSD1 K114me2 coimmunoprecipitated with G9A from LNCaP cell extracts (FIG. 2f). Together, these observations identify CHD1 as a LSD1 K114me2 reader.
ITC experiments were performed at 25° C. with a MicroCal VP-ITC microcalorimeter (GE Healthcare). […]

[2] = molecular target: T2, CHD1 double chromodomain (GST-CHD1 Chromo 1/2) (Homo sapiens, UniProt O14646); assay: Protein profiling on protein-domain microarrays with LSD1 peptides; format: binding; conditions: GST-fusion proteins
T2 sequence (O14646 268-443 limits assumed): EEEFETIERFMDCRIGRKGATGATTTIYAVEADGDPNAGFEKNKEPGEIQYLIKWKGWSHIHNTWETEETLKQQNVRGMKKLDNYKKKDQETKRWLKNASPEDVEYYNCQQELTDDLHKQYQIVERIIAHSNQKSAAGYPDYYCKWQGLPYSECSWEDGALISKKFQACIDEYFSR
Protocol: To identify potential LSD1 K114me2 methyl-lysine reader proteins, protein profiling was performed on protein-domain microarrays using un- and dimethylated LSD1 peptides LSD1aa104-127 and LSD1aa104-127 K114me2, respectively (see also ref.^14). In this profiling assay, several GST-fusion proteins including CHD1 fused to GST were used. Other GST-fusions that were used were e.g. PhD-domain proteins (BPTF, ING2 or PHF2), BROMO-domain proteins (GCN5, TAF1-D1 or TAF1-D2), or BRCT-proteins (BRCA1, 53BP1 or Crb2).

effect of D425A mutation in CHD1 on peptide binding [1]: abolished the interaction | interaction with CHD1 double chromodomain on microarray [2]: specifically interacted
Structure (SMILES): CSCC[C@H](NC(=O)[C@H](CCC(=O)O)NC(=O)[C@H](CCCNC(=N)N)NC(=O)[C@H](Cc1ccc(O)cc1)NC(=O)[C@H](CCC(=O)O)NC(=O)[C@@H](NC(=O)[C@H](CCCCN)NC(=O)[C@H](C)NC(=O)[C@H](CCCNC(=N)N)NC(=O)[C@H](CCCCN(C)C)NC(=O)[C@H](CCCNC(=N)N)NC(=O)[C@H](CCCNC(=N)N)NC(=O)[C@H](CO)NC(=O)[C@@H](NC(=O)[C@H](CCCNC(=N)N)NC(=O)[C@H](CCCNC(=N)N)NC(=O)CNC(=O)[C@H](CCC(=O)O)NC(=O)[C@@H]1CCCN1C(=O)[C@@H](N)[C@@H](C)O)[C@@H](C)O)C(C)C)C(=O)N[C@@H](CC(=O)O)C(=O)N[C@@H](CCC(=O)O)C(=O)N[C@@H](CO)C(=O)N[C@@H](CC(C)C)C(=O)O [LSD1 K114me2]
